## scFv variants of Ab-14 (light chain) against a SARS-CoV-2 spike peptide

Binding partner: SARS-CoV-2 spike HR2 peptide, sequence PDVDLGDISGINAS.

Parent scFv Ab-14: VH joined to VL by a (GGGGS)3 linker. Changes lie in the light chain CDRs alone.
VH: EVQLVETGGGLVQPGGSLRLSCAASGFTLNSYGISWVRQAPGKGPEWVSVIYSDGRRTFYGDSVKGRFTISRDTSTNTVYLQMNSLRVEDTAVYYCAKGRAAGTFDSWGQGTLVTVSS
VL: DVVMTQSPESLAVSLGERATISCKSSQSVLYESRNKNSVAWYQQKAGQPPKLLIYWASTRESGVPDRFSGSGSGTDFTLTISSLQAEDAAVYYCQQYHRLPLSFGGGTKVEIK

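The library (AAYL50) carries one to three amino acid substitutions per variant, with no insertions or deletions. In AlphaSeq, yeast of one mating type display the scFv and yeast of the other type display the target. Pairs that bind mate more often; barcode pairs of the diploids are counted by sequencing. Each replicate has its own calibration line, from reference interactions of the BCL2 family. Mating was done three times.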

Substitutions are numbered in sequence along the VL above, starting at 1 (not Kabat). Values are log10 of the apparent Kd in nM; lower means stronger binding. A mean of the replicates is given; it leaves out those without a signal. An entry "ND" has no value in the source: the pair was not observed among the diploids in that replicate. This suggests poor binding but is not conclusive. Nonspecific signal, from three strains lacking the peptide, appeared in 18% of pairings of library AAYL50, centred on 4.19 (5% of these signals below 2.99); values are not corrected for it. Also given: how often the same scFv was detected with the empty control strains, with their mean in brackets.

| changes | log10 Kd, replicates | log10 Kd (nM), mean | empty controls |
|---|---|---|---|
| S26M+R34G+H98N | 0.84 / 0.99 / 0.70 | 0.84 | 2 of 9 (4.71) |
| S25T+S58T+Q95K | 1.19 / 1.02 / 1.01 | 1.07 | 0 of 9 |
| S28H+T59D+L102Y | ND / ND / ND | ND | 0 of 9 |
| L30S+W56E+A57F | 1.05 / 1.27 / 1.27 | 1.20 | 0 of 9 |
| S28G+T59N+H98S | 1.67 / 1.70 / 1.99 | 1.78 | 0 of 9 |
| V29G+Y97Q | ND / ND / 4.98 | 4.98 | 3 of 9 (4.52) |
| R34N+R60G+L102T | ND / ND / ND | ND | 0 of 9 |
| E32Q+Q96K | 1.72 / 1.74 / 1.92 | 1.79 | 1 of 9 (4.43) |
| W56A+S62A | -0.11 / 0.27 / 0.03 | 0.06 | 3 of 9 (4.34) |
| V29S+E32H+H98A | ND / ND / ND | ND | 0 of 9 |
| R34M+R60M+Q96L | 1.93 / 2.13 / 1.68 | 1.92 | 1 of 9 (2.58) |
| K24P+N37I+R99I | ND / ND / 4.07 | 4.07 | 2 of 9 (4.74) |
| L30S | 2.58 / 2.29 / 2.34 | 2.40 | 2 of 9 (4.42) |
| A57V+Q95N | ND / ND / ND | ND | 0 of 9 |
| Y31K+T59W+L100W | ND / ND / ND | ND | 0 of 9 |
| V29A+Y31H+Q95Y | 1.04 / 1.41 / 1.17 | 1.21 | 2 of 9 (3.45) |
| V39N+Q96M+P101S | ND / 3.94 / ND | 3.94 | 1 of 9 (4.05) |
| E32S+L100R | ND / ND / ND | ND | 0 of 9 |
| S25C+K36S+L102N | 0.34 / 0.59 / 0.45 | 0.46 | 3 of 9 (5.52) |
| Q95V+L102S | 1.55 / 1.72 / 1.70 | 1.65 | 5 of 9 (4.72) |
| Y31I+N35L+V39H | 3.94 / 4.78 / ND | 4.36 | 3 of 9 (4.58) |
| K24C+E32R+T59K | ND / ND / ND | ND | 1 of 9 (3.34) |
| E61N+Q95N+Q96I | 0.84 / 0.95 / 0.45 | 0.75 | 0 of 9 |
| N35P+Q95S | 3.80 / ND / ND | 3.80 | 3 of 9 (4.00) |
| K24T+Q27C+P101N | ND / ND / ND | ND | 2 of 9 (2.38) |
| V29S+T59F | 1.01 / 1.30 / 1.17 | 1.16 | 4 of 9 (4.76) |
| R34S+A40W+Q95C | ND / ND / 5.14 | 5.14 | 0 of 9 |
| W56K+Q96M | 0.90 / 1.22 / 0.87 | 1.00 | 1 of 9 (4.36) |
| K24Y+K36N+S62W | 2.28 / ND / ND | 2.28 | 0 of 9 |
| R34F+S38T+A40S | 0.83 / 0.88 / 0.96 | 0.89 | 3 of 9 (4.07) |
| E61S+S62Y | ND / ND / ND | ND | 3 of 9 (3.99) |
| E32W+R34F+S38D | ND / ND / ND | ND | 1 of 9 (3.80) |
| S58C+H98A+L102Y | ND / ND / ND | ND | 0 of 9 |
| Y31N+E61P | 1.18 / 1.05 / 1.72 | 1.31 | 1 of 9 (4.04) |
| A57D+Y97A+L100M | 1.60 / 1.74 / 1.63 | 1.66 | 4 of 9 (4.44) |

A selection of 6 entries from above:

changes	log10 Kd, replicates	log10 Kd (nM), mean	empty controls
R34M+R60M+Q96L	1.93 / 2.13 / 1.68	1.92	1 of 9 (2.58)
R34N+R60G+L102T	ND / ND / ND	ND	0 of 9
L30S+W56E+A57F	1.05 / 1.27 / 1.27	1.20	0 of 9
K24C+E32R+T59K	ND / ND / ND	ND	1 of 9 (3.34)
E61N+Q95N+Q96I	0.84 / 0.95 / 0.45	0.75	0 of 9
E32S+L100R	ND / ND / ND	ND	0 of 9

In this assay the parent's reference entry averaged 0.65; its copy inside this library read 1.68.

Data: MIT Lincoln Laboratory AlphaSeq set, Engelhart et al. 2022, doi:10.1038/s41597-022-01779-4, as distributed in FLAb.